“And” between values parts separate entries of the source, which are not always exact repeats. Identical values can stand only once. Like-named read-outs stand apart in the source and are kept apart here.

The conditions of data set [1]: cited from earlier work.
A short description of data set [2]: milogP calculated using Molinspiration Cheminformatics. Conditions: Table SI14.
The nature of data set [3]: log P determination by 19F NMR shake-flask method with internal fluorinated reference (octanol/water).
Where [4] appears, read: internal validation, reference 13 (+1.20EXP).

Turning to 2-fluoroethanol, the logP (lit) was -0.67 in data set [1] (method and temperature not provided, ref U.S. National Library of Medicine online database (chemidplus)); -0.92 in data set [1] (ref Hansch, Leo 1979 and Dillingham et al., J. Pharm. Sci. 1973 (shake-flask, gas chromatography)). In addition, the “ΔlogP (milogP vs logP exp)” value in data set [2] was “+0.73”. The Average logP in data set [3] (25 °C, reference TFE (+0.36)) is -0.75; in data set [3] (setting [4]) it was -0.76. Besides, the error (mean logP to three decimals) is -0.758 in data set [3] (setting [4]) and -0.746 in data set [3] (reference TFE (+0.36)). The lipophilicity (logP) is -0.75 in data set [3] (octanol/water, 19F NMR, 25 °C, average value); -0.766 and -0.754 in data set [3] (single experiment, internal validation, reference 13 (+1.20EXP)); -0.746 and -0.749 and -0.741 in data set [3] (single experiment, reference TFE (+0.36)).

Values taken from article PMC4832822, “Investigating the Influence of (Deoxy)fluorination on the Lipophilicity of Non‐UV‐Active Fluorinated Alkanols and Carbohydrates by a New log P Determination Method” (Angewandte Chemie (International Ed. in English), 2015).
